One assay concerns the target CB2R-E181^ECL2D (Homo sapiens, UniProt P34972, E181D). Briefly: [35S]GTPγS assay, CB2R E181D mutant. The class given is biochemical. For orientation: Binding of GTPγS marks nucleotide exchange on a G protein.
In assay [1] the target is T1, CB2R-I110^3.29L (Homo sapiens, UniProt P34972, I110L). The experiment in a line: [3H]CP55,940 displacement assay, CB2R I110L mutant. The class given is binding.
Assay [2] addresses T2, CB2R WT (Homo sapiens, UniProt P34972). Briefly: [35S]GTPγS G protein activation assay, CB2R WT. The assay is classed as biochemical.
Assay [3] addresses T3, CB2R-L185^ECL2H (Homo sapiens, UniProt P34972, L185H). Briefly: [3H]CP55,940 displacement assay, CB2R L185H mutant. The class given is binding.
Assay [4] has as its target T4, hCB2R (Homo sapiens, UniProt P34972).
T4 construct: host or cells: CHO-K1 (CHOK1_hCB2bgal, PathHunter), membranes
Briefly: [3H]RO6957022 displacement assay. The class given is binding.

By UniProt entry, the sequences of proteins in these tests, tags left out.
UniProt P34972, whole entry E181D: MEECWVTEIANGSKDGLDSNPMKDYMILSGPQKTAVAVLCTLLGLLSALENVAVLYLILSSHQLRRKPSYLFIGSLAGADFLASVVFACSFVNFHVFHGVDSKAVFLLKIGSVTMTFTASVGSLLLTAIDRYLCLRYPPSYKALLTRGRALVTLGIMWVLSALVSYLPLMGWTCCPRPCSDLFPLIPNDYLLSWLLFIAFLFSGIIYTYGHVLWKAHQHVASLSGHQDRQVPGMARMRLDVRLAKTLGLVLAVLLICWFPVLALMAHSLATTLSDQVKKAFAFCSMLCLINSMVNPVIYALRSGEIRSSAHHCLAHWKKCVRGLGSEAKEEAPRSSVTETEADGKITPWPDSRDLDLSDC
UniProt P34972, whole entry I110L: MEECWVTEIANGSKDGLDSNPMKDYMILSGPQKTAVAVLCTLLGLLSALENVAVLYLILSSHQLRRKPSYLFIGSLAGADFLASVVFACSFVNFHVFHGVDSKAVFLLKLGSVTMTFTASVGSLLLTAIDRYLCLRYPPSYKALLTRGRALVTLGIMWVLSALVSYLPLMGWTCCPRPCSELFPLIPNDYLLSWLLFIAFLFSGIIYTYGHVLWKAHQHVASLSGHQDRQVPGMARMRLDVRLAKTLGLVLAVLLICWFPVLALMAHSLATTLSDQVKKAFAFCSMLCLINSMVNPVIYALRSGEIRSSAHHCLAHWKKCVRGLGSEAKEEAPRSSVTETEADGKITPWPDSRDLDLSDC
UniProt P34972, whole entry: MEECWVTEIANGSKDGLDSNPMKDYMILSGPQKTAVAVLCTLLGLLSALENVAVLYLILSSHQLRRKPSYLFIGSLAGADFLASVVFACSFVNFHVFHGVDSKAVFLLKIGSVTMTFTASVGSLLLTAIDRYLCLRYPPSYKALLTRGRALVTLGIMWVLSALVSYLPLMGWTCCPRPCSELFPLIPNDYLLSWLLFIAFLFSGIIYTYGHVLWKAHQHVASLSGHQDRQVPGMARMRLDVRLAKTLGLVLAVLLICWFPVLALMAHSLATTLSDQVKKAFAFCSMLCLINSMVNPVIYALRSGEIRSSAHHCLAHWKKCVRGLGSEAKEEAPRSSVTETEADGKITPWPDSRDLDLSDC
UniProt P34972, whole entry L185H: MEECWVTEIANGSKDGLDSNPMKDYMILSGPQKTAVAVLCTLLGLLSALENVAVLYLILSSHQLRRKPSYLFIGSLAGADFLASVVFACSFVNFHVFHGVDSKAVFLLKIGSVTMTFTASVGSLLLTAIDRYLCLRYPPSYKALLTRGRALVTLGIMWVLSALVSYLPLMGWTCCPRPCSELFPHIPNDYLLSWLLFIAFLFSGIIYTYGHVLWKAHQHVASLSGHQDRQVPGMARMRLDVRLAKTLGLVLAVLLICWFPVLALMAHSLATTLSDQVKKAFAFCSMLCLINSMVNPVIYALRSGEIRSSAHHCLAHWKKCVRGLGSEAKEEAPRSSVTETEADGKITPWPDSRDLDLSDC
UniProt P34972, whole entry L182I: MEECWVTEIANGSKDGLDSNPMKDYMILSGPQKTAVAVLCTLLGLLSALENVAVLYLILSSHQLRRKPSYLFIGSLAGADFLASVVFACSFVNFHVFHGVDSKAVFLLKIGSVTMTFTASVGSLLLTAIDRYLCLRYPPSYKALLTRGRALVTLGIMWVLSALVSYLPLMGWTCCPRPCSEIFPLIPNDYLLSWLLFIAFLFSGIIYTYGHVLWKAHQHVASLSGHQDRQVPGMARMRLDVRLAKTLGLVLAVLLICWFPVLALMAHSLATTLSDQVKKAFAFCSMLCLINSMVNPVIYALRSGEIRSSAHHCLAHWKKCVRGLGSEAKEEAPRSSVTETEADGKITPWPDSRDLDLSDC
UniProt P34972, whole entry K33Q/V36I/C40S/K279T: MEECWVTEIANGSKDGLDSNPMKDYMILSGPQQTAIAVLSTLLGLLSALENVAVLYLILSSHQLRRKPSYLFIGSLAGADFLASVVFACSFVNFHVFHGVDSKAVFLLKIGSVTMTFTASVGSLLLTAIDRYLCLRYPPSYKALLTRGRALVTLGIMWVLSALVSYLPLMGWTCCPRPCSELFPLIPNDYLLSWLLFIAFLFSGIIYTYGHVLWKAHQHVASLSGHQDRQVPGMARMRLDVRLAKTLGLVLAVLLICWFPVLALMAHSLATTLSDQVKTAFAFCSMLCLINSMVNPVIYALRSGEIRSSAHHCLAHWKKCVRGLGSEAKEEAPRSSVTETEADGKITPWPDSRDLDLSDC
UniProt P34972, whole entry V261L: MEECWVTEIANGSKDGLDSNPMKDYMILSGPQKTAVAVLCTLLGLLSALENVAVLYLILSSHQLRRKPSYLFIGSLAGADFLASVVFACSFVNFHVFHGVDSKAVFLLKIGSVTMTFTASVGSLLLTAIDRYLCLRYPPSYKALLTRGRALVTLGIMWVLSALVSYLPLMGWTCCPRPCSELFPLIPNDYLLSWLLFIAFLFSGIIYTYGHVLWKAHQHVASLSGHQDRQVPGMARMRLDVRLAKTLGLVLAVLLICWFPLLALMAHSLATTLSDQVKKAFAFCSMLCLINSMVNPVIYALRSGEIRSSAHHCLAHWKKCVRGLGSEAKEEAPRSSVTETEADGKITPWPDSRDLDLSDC
UniProt P34972, whole entry S285A: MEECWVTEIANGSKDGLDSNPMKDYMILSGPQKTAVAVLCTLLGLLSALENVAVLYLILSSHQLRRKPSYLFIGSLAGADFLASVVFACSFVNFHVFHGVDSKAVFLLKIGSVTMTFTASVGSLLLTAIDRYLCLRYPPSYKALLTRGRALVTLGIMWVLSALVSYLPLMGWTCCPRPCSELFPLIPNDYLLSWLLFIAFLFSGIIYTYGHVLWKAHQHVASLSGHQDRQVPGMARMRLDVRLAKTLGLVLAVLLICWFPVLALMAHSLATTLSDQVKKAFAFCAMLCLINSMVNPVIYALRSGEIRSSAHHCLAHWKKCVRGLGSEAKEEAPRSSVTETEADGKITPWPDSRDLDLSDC
UniProt P34972, whole entry H95A: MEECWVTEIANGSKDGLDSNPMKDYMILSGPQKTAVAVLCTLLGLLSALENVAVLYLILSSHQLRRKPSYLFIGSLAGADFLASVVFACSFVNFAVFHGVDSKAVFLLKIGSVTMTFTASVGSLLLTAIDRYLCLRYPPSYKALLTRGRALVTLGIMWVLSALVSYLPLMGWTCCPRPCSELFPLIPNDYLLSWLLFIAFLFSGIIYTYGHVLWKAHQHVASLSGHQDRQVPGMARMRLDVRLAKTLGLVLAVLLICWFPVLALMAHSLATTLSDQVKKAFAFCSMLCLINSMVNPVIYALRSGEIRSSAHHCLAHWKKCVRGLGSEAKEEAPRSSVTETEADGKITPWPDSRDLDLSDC

The target in assay [5] is T3, CB2R-L185^ECL2H. Briefly: [35S]GTPγS assay, CB2R L185H mutant. The class given is biochemical.
Assay [6] concerns the target T4, hCB2R. The experiment in a line: [3H]RO6957022 competition association assay. The assay is classed as binding.
Assay [7] addresses T2, CB2R WT. Briefly: [3H]CP55,940 displacement assay, CB2R WT. The class given is binding.
A further assay deals with CB2R-L182^ECL2I (Homo sapiens, UniProt P34972, L182I). Briefly: [35S]GTPγS assay, CB2R L182I mutant. The class given is biochemical.
The target in assay [8] is T5, CB2R-Quadruple^TM1,7 (Homo sapiens, UniProt P34972, C40S/K279T/K33Q/V36I). Briefly: [35S]GTPγS assay, CB2R quadruple mutant. The class given is biochemical. The conditions noted are these: Quadruple TM1,7 mutant; <5 when curve fit not finished.
Assay [9] concerns the target T5, CB2R-Quadruple^TM1,7. The experiment in a line: [3H]CP55,940 displacement assay, CB2R quadruple mutant. The class given is binding.
For a further assay, the target named is CB2R-V261^6.51L (Homo sapiens, UniProt P34972, V261L). Briefly: [35S]GTPγS assay, CB2R V261L mutant. The assay is classed as biochemical.
For a further assay, the target named is CB2R-S285^7.39A (Homo sapiens, UniProt P34972, S285A). Briefly: [35S]GTPγS assay, CB2R S285A mutant. The class given is biochemical.
Assay [10] addresses T1, CB2R-I110^3.29L. Briefly: [35S]GTPγS assay, CB2R I110L mutant. The assay is classed as biochemical.
In a further assay the target is CB2R-H95^2.65A (Homo sapiens, UniProt P34972, H95A). Briefly: [35S]GTPγS assay, CB2R H95A mutant. The class given is biochemical.

The Kd is the equilibrium constant for the complex coming apart.

Each structure is given as a SMILES string. Like-named read-outs stand apart in the source and are kept apart here. Some results are limits rather than exact numbers.

Take `CCCCC/C=C\C/C=C\C/C=C\C/C=C\CCCC(=O)NCCO` [AEA, anandamide]: the EC50 at CB2R-E181^ECL2D (E181D mutant, <5 when curve fit not finished, read-out: pEC50 (converted)) was greater than 10000 nM; on CB2R WT [2] ([35S]GTPγS, HEK293T membranes transiently expressing CB2R WT, read-out: pEC50 (converted)), 501 nM; at CB2R-L185^ECL2H [5] (L185H mutant, HEK293T membranes, read-out: pEC50 (converted)), 251 nM; on CB2R-L182^ECL2I (L182I mutant, <5 when curve fit not finished, read-out: pEC50 (converted)), greater than 10 µM; at CB2R-Quadruple^TM1,7 [8] it was greater than 10 µM. Besides, the Ki on CB2R-I110^3.29L [1] is 794 nM; at CB2R-L185^ECL2H [3], 501 nM; at hCB2R [4] (CHOK1_hCB2bgal membranes, 10 °C, read-out: Ki), 485 nM; at CB2R WT [7], 631 nM; on CB2R-Quadruple^TM1,7 [9] (CB2R Quadruple TM1,7 mutant, <5 when curve fit not finished, read-out: pKi (converted)), 2510 nM. Besides, on hCB2R [6] (KD = koff/kon, read-out: Kinetic KD), the Kd worked out at 372 nM.
Regarding `CCCCCCC(C)(C)c1cc(OC)c([C@@H]2C=C(CO)[C@@H]3C[C@H]2C3(C)C)c(OC)c1` [HU308], the EC50 at CB2R-E181^ECL2D was 100 nM; on CB2R-V261^6.51L, greater than 10 µM; on CB2R WT [2], 79.4 nM; on CB2R-S285^7.39A, 1260 nM; on CB2R-L185^ECL2H [5], 158 nM; at CB2R-I110^3.29L [10], 200 nM. Besides, the EC50 on CB2R-L182^ECL2I is greater than 10 µM; at CB2R-H95^2.65A it was 251 nM. For the same compound, the Ki on CB2R-I110^3.29L [1] was 50.1 nM; on CB2R-L185^ECL2H [3], 63.1 nM; at hCB2R [4], 92.4 nM; at CB2R WT [7], 15.8 nM; at CB2R-Quadruple^TM1,7 [9] it was 79.4 nM. Further, the pKi entry on CB2R-I110^3.29L [1] is “not affected”. Also, the Kd on hCB2R [6] amounted to 33.7 nM. Also, the pEC50 result at CB2R-I110^3.29L [10] (I110L mutant, HEK293T membranes) is “not affected”; on CB2R-L182^ECL2I (L182I mutant, <5 when curve fit not finished), “less potent”.

Values taken from PMC10017709, “Structural basis of selective cannabinoid CB2 receptor activation” (Nature Communications, 2023).
